Data taken from patent US20080050387A1, “Non-Androgen Dependent Roles for Androgen Receptor and Non-Androgen Related Inhibitors of Androgen Receptor” (priority 2003, published 2008).

Amino acid sequences for entries named in this document (tags omitted). Chains listed by the source or under a name are the forms on record and can include a tag or linker.
UniProt P10275, with tags, fused parts or gaps DEL79-80/DUP473-473: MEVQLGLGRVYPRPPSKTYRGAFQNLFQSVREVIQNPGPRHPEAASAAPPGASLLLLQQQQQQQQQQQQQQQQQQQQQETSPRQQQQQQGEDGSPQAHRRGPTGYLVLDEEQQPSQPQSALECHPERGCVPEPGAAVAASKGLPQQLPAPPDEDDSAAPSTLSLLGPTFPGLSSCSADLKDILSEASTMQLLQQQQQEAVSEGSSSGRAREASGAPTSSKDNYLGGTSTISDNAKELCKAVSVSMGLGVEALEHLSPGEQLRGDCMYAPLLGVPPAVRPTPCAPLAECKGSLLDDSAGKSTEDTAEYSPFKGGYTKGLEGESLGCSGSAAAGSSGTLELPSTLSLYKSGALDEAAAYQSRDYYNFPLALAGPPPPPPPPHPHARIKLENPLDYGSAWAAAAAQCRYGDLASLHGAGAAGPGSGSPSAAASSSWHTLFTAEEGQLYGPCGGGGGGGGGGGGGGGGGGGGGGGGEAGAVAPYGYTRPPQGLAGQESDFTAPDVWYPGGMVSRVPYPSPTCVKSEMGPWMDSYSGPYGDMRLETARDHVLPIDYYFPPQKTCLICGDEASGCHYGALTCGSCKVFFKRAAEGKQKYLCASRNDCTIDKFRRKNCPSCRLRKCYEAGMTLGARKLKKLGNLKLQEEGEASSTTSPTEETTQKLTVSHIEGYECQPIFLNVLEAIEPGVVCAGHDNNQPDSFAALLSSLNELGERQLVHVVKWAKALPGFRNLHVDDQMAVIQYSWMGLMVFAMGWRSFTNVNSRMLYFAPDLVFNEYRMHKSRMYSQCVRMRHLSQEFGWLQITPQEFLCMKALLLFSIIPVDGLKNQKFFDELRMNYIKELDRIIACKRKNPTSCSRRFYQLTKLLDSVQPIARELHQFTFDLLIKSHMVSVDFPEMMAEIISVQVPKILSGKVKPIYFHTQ

Molecular target: T1, interaction of AR with ARA70 (Homo sapiens, UniProt P10275, DEL79-80/DUP473-473)
T1 construct: expressed in transfected cells; host or cells: COS-1
Experiment: Mammalian two-hybrid assay AR / ARA70 in COS-1 cells
Assay type: cell-based
Details: GAL4-ARA70 and VP16-AR, pG5-Luc
Experimental: COS-1 and PC-3 cells were maintained in early to mid-log phase in DMEM medium, supplemented with 10% fetal bovine serum (FBS), 50 units/ml penicillin and 50 μg/ml streptormnycin in incubators with humidified air and 5% carbon dioxide at 37° C. LNCaP cells were maintained in RPMI (GIBCO/BRL) medium. Twenty-four h prior to transfection, cells washed with Hanks' buffered saline solution, trypsinized, and seeded to be a density of 40-60% confluence for transfection. Cells in 12 well plates were refed with fresh medium 2 hours before transfection and transfected according to the “SuperFect Transfection” instructions (QIAGEN). After 2-3 h incubation, cells were treated with medium supplemented with charcoal-dextran treated FBS containing either ethanol or ligands. Cells were further incubated at 37° C. for 24 h, washed with PBS, and harvested.

interaction of AR with ARA70: inhibited
B1: GSK3β: glycogen synthase kinase 3β, serine/threonine protein kinase (SEQ ID NO:5), wild type (protein)
chain: MSGRPRTTSFAESCKPVQQPSAFGSMKVSRDKDGSKVTTVVATPGQGPDRPQEVSYTDTKVIGNGSFGVVYQAKLCDSGELVAIKKVLQDKRFKNRELQIMRKLDHCNIVRLRYFFYSSGEKKDEVYLNLVLDYVPETVYRVARHYSRAKQTLPVIYVKLYMYQLFRSLAYIHSFGICHRDIKPQNLLLDPDTAVLKLCDFGSAKQLVRGEPNVSYICSRYYRAPELIFGATDYTSSIDVWSAGCVLAELLLGQPIFPGDSGVDQLVEIIKVLGTPTREQIREMNPNYTEFKFPQIKAHPWTKDSSGTGHFTSGVRVFRPRTPPEAIALCSRLLEYTPTARLTPLEACAHSFFDELRDPNVKLPNGRDTPALFNFTTQELSSNPPLATILIPPHARIQAAASTPTNATAASDANTGDRGQTNNAASASASNST
